Results reported in US20260240847A1, “COMPOUNDS WITH ANTI-TUMOR ACTIVITY AGAINST CANCER CELLS BEARING TYROSINE KINASE INHIBITOR RESISTANT EGFR MUTATIONS” (BOARD OF REGENTS, THE UNIVERSITY OF TEXAS SYSTEM, priority 2019, published 2026).

Chains of the proteins cited; added tags and fusions are not shown. Residues count along the entry.
UniProt P00533, 25-1210 S811F: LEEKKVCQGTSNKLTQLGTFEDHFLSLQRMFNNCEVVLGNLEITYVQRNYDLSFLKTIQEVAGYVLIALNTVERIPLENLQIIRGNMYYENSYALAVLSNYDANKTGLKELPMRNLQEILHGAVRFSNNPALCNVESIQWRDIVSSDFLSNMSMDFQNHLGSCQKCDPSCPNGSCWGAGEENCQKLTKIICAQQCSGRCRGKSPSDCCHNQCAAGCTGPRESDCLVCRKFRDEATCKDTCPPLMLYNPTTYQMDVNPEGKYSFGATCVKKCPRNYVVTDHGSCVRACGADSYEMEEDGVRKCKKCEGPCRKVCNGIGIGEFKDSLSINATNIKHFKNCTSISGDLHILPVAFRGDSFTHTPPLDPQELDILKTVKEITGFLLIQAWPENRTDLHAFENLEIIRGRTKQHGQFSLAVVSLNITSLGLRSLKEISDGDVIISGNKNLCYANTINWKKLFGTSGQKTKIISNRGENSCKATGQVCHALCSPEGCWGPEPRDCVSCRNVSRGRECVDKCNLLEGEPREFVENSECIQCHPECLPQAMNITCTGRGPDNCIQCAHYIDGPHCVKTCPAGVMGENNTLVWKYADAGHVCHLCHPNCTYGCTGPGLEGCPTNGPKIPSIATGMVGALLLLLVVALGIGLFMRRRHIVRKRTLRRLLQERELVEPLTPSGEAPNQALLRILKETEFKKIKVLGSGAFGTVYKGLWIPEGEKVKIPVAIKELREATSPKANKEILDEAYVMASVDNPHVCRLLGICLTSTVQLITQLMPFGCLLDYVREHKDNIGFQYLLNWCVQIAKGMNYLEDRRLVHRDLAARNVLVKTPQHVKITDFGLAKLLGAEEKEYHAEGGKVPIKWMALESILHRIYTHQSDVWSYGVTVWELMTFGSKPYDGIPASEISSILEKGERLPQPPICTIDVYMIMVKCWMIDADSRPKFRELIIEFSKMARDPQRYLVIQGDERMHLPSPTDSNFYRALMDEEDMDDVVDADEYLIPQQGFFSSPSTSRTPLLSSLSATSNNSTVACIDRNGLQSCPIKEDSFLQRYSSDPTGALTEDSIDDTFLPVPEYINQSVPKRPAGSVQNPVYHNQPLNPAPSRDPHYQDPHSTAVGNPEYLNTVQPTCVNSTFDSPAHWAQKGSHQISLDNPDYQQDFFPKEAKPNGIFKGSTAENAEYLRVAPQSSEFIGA

Target: EGFR S811F (Homo sapiens, UniProt P00533, S811F)
Experiment: Ba/F3 cell viability, Cell Titer Glo
Conditions: read-out: IC50 Values; Ba/F3 cells expressing EGFR S811F, 72 hours

Which IC50 does the source give for `Cc1cc(C(=O)Nc2nc3cccc(Cl)c3n2[C@@H]2CCCCN(C(=O)/C=C/CN(C)C)C2)ccn1` here?
Its IC50 is 743 nM.
